# In paper PMC8837702 (Archives of toxicology, 2021):
# “Also recorded” adds a separate entry of the source.
# System: UV5 DNA repair-deficient CHO cells stably expressing CYP1A1 and NAT1
# Experiment: dG-C8-ABP adduct quantification by mass spectrometry
# Format: cell-based, Chinese hamster
# Conditions: in situ, CHO cells treated 24 hr
substance,measurement,value
"9,10-dihydro-9,10-dioxo-1,2-anthracenediyl diethyl ester [Compound 10]",ABP-induced dG-C8-ABP adduct formation,decreased; also recorded: concentration -dependent inhibition
